The subject of this data set is rat erythrocytes. The data set can be described thus: Hemolysis assay. Format: cell-based. To be noted: Table S2; 10% hemolysis in rat erythrocytes, PBS pH 7.4, 37 °C 60 min; mean of triplicate. The procedure: The hemolysis assay was performed using rat erythrocytes in phosphate‐buffered saline (PBS), as reported by Mendes et al.^[ [45] ^] Animal studies were approved by the Laboratory Animal Resource Center of Gwangju Institute of Science and Technology. Blood was collected from a 13‐week‐old male Sprague‐Dawley rat in tubes containing 158 USP units of sodium heparin to prevent coagulation and centrifuged at 1000 rpm for 10 min at 4 °C. Plasma was removed carefully and erythrocyte pellets were washed three times with PBS (35 mM phosphate, pH 7.4, 150 mM NaCl). Next, 150 µL of a 10% erythrocyte suspension was mixed with 50 µL of serially diluted peptoids (0–100 µM) in a 96‐well black polypropylene plates (Greiner, Kremsmünster, Austria). […] Aliquots (150 µL) of the supernatant were transferred to fresh 96‐well plates, and the absorbance of each well was measured at 540 nm using a microplate reader. Hemolysis induced by peptoids was calculated as the percentage value of Triton X‐100 lysed cells. The percentage of hemolysis by the extracts was calculated according to the following formula: % hemolysis = [(Abs 540 nm in the peptoid solution – Abs 540 nm in PBS) / (Abs 540 nm in 1% Triton X‐100 – Abs 540 nm in PBS)] × 100. […]

On to `CC[C@H](C)[C@H](NC(=O)CN)C(=O)NCC(=O)N[C@@H](C)C(=O)N[C@H](C(=O)N[C@@H](CC(C)C)C(=O)N[C@@H](CCCCN)C(=O)N[C@H](C(=O)N[C@@H](CC(C)C)C(=O)N[C@H](C(=O)N[C@H](C(=O)NCC(=O)N[C@@H](CC(C)C)C(=O)N1CCC[C@H]1C(=O)N[C@@H](C)C(=O)N[C@@H](CC(C)C)C(=O)N[C@H](C(=O)N[C@@H](CO)C(=O)N[C@@H](Cc1c[nH]c2ccccc12)C(=O)N[C@H](C(=O)N[C@@H](CCCCN)C(=O)N[C@@H](CCCNC(=N)N)C(=O)N[C@@H](CCCCN)C(=O)N[C@@H](CCCNC(=N)N)C(=O)N[C@@H](CCC(N)=O)C(=O)N[C@@H](CCC(N)=O)C(N)=O)[C@@H](C)CC)[C@@H](C)CC)[C@@H](C)O)[C@@H](C)O)C(C)C)C(C)C` [Melittin, reference compound], for which the HC10 is less than 3.1 µM.

(Values after article PMC10460844, “Real‐Time Monitoring of Multitarget Antimicrobial Mechanisms of Peptoids Using Label‐Free Imaging with Optical Diffraction Tomography” (Advanced Science, 2023).)
